Values quoted from earlier work in patent US20170107257A1, “CYCLIC APELIN ANALOGS” (LANTHIOPEP B.V., priority 2014, published 2017).
pEC50: −log10 of the molar value.

Target: T1, hAPJ (Homo sapiens, UniProt P35414)
T1 sequence (P35414 1-380): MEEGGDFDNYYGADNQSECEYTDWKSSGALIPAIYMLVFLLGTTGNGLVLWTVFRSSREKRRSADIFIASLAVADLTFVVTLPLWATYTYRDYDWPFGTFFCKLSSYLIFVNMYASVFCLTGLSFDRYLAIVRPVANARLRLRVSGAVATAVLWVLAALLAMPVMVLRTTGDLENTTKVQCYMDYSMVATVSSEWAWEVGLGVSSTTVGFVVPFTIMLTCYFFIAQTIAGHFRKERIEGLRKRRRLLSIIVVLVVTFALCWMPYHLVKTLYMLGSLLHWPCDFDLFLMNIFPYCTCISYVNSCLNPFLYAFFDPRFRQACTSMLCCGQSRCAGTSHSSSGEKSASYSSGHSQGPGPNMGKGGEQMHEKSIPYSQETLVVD
Settings: read-out: EC50 activating the APJ receptor; cited from earlier work

For apelin-17, the pEC50 is listed as 8.60.
